Assay results as given in ChEMBL document CHEMBL6083268, “Discovery of BAY 2413555, First Selective Positive Allosteric Modulator of the M2 Receptor to Restore Cardiac Autonomic Balance” (J Med Chem, 2024).

By UniProt entry, the sequences of proteins in these tests, tags left out.
UniProt P10980, whole entry: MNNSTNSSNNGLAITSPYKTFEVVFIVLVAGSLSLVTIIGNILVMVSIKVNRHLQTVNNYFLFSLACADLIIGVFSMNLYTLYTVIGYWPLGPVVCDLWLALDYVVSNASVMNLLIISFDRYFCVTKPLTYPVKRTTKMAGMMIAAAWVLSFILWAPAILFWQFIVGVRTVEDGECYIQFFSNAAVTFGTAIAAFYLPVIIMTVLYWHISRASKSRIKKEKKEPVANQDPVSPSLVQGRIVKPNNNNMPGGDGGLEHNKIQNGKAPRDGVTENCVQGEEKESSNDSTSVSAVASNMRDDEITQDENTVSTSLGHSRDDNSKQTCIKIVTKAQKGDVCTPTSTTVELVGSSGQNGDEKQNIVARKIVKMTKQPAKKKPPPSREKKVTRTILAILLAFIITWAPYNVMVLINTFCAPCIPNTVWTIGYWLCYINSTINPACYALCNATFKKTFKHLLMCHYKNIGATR
UniProt P08912, whole entry: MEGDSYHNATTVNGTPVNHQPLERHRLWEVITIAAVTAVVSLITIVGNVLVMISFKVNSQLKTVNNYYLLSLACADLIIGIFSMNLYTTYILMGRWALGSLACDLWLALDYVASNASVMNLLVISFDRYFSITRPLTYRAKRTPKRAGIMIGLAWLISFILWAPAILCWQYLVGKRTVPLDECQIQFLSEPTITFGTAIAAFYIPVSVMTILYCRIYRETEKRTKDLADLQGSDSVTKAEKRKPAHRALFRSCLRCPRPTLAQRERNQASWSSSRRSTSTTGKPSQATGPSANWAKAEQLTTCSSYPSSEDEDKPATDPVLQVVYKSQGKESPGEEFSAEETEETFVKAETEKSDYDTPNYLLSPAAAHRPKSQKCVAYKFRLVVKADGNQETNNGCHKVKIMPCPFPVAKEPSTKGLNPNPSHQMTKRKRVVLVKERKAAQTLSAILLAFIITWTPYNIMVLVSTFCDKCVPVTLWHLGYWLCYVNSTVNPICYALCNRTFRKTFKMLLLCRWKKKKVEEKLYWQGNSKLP
UniProt P20309, whole entry, looked up: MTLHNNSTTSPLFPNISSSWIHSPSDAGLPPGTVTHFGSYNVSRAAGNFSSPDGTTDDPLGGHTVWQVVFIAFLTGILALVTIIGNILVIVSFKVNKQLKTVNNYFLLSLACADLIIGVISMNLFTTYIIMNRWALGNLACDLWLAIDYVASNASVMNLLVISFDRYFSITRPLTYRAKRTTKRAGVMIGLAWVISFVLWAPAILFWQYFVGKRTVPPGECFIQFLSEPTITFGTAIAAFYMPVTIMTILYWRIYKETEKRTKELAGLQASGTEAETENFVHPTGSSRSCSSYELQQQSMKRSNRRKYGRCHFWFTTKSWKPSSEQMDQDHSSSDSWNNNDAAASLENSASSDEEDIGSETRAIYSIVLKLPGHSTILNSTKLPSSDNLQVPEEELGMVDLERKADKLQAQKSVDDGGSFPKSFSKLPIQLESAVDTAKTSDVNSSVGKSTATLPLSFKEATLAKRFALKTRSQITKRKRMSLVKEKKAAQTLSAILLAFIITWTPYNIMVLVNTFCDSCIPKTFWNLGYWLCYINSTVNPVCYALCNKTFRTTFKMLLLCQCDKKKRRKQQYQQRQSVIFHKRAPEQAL

Columns and labels:
[1] = target: Muscarinic acetylcholine receptor M2 (Rattus norvegicus) (UniProt P10980); test: Ex vivo positive allosteric modulator activity at M2 muscarinic acetycholine receptor in Wistar rat assessed as reduction of carbachol-induced heart rate infused for 20 mins into aortic cannula in presence of M2 muscarinic acetylcholine receptor antagonist, atropine; format: functional
[2] = target: Muscarinic acetylcholine receptor M5 (Homo sapiens) (UniProt P08912); test: Agonist activity at M5 muscarinic acetylcholine receptor (unknown origin) assessed as calcium mobilization at 10 uM measured for 180 secs by FLIPR analysis relative to control; format: functional; conditions: time 180.0 sec
[3] = target: Muscarinic acetylcholine receptor M2 (Rattus norvegicus) (UniProt P10980); test: Ex vivo antagonist activity at M2 muscarinic acetylcholine receptor in Wistar rat assessed as effect on heart function infused for 20 mins into aortic cannula; format: functional
[4] = target: Muscarinic acetylcholine receptor M2 (Rattus norvegicus) (UniProt P10980); test: Ex vivo agonist activity at M2 muscarinic acetylcholine receptor in Wistar rat assessed as effect on heart function infused for 20 mins into aortic cannula; format: functional
[5] = target: Muscarinic acetylcholine receptor M2 (Rattus norvegicus) (UniProt P10980); test: Ex vivo positive allosteric modulator activity at M2 muscarinic acetycholine receptor in Wistar rat assessed as reduction of carbachol-induced heart rate infused for 20 mins into aortic cannula; format: functional
[6] = target: Muscarinic acetylcholine receptor M3 (Homo sapiens) (UniProt P20309); test: Agonist activity at human recombinant M3 muscarinic acetylcholine receptor assessed as calcium mobilization at 10 uM measured for 180 secs by FLIPR analysis relative to control; format: functional; conditions: time 180.0 sec
[7] = target: Muscarinic acetylcholine receptor M2 (Rattus norvegicus) (UniProt P10980); test: Ex vivo positive allosteric modulator activity at M2 muscarinic acetycholine receptor in Wistar rat assessed as leftward shift in carbachol dose-response curve for heart rate at 300 nM infused for 20 mins into aortic cannula; format: functional
Rattus norvegicus [8] = test: Restoration of cardiac autonomic balance in free-moving conscious spontaneously hypertensive rat assessed as reduction of heart rate at 10 mg/kg, po administered via gavage by radiotelemetry; format: functional, organism-based
Rattus norvegicus [9] = test: Restoration of cardiac autonomic balance in free-moving conscious spontaneously hypertensive rat assessed as reduction of mean arterial blood pressure at 10 mg/kg, po administered via gavage by radiotelemetry; format: functional, organism-based

| Structure (SMILES) | Activity [1] | Activity [2] | Activity [3] | Activity [4] | Activity [5] | Activity [6] | Activity [7] | Activity (Rattus norvegicus [8]) | Activity (Rattus norvegicus [9]) |
| --- | --- | --- | --- | --- | --- | --- | --- | --- | --- |
| C[C@H](NC(=O)c1cn(-c2c(F)cc(F)cc2F)c2nc(N3C[C@@H](O)[C@H](O)C3)c(F)cc2c1=O)C(F)(F)C(F)(F)F | inactive | 1.6% | inactive | inactive | Dose-dependent-effect | 0.4% | Active |  |  |
| CC(C)NCC(O)COc1ccc(CC(N)=O)cc1 (centres undefined) |  |  |  |  |  |  |  | Active | Active |

Activity calls are given as the source filed them. The calls are words filed in the database; no cut-off is given here.
